Data: ChEMBL document CHEMBL4052607 (J Med Chem, 2017)

By UniProt entry, the sequences of proteins in these tests, tags left out.
UniProt P35462, whole entry: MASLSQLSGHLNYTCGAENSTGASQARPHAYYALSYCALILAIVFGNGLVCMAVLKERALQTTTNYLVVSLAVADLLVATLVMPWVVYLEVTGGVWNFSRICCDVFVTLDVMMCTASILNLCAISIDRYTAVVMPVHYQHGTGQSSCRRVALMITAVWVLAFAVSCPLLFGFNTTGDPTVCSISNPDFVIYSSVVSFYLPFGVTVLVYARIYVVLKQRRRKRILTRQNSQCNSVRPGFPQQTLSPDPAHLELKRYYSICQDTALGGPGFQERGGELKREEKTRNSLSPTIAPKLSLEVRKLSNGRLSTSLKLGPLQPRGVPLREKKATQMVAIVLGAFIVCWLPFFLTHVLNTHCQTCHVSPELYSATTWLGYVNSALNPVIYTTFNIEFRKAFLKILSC

Target: D(3) dopamine receptor (Homo sapiens, UniProt P35462)
Assay: Competitive antagonist activity at D3 receptor (unknown origin) expressed in CHOK1 cells assessed as induction of rightward shift in the dopamine dose response curve for beta-arrestin recruitment after 90 mins by DiscoveRx PathHunter assay
Format: cell-based
Conditions: read-out: pA2 (converted)

Kb: 39.8 nM
Compound: CCN1CCCC1CNC(=O)c1cc(S(N)(=O)=O)ccc1OC (stereo unspecified) [SULPIRIDE]
